The values that follow are results of earlier work, collected in patent publication US4198507A.

The conditions of data set [1]: prior art; cited from earlier work.
A further data set relates to gastrointestinal tract. The settings on record: compared with the parent xanthines; prior art; cited from earlier work.
For data set [2] the following is noted: prior art; cited from earlier work. The source holds these as a separate data set.

For the substance theobromine calcium salicylate, the “reaction in aqueous solutions or suspensions” value in data set [1] is recorded as “alkaline reactions”. In addition, the “tolerance in the gastrointestinal tract” value with gastrointestinal tract is recorded as “better tolerated”. For theophylline calcium salicylate, in data set [2], the “water solubility (in words)” value is recorded as “insoluble”.
